Tests used:
NCI-H358 cells = assay: 3D cell proliferation inhibition assay (CellTiter-Glo 3D); type: cell-based; conditions: read-out: Activity by IC50 (nM), inhibitory activity against NCI-H358 cell proliferation; NCI-H358 (KRAS G12C-mutated NSCLC), 3D culture, CTG 3D read on Day 8
From the text: The cell proliferation inhibition assay was used to determine the abilities of compounds to inhibit the proliferation and growth of SOS1-mediated tumor cells at the in vitro 3D cellular level. The CellTiter-Glo® 3D Cell Viability Assay was employed.
• NCI-H358: KRAS G12C-mutated non-small cell lung cancer (NSCLC); • CellTiter-Glo® 3D Cell Viability Assay, Promega, G9683; • RPMI 1640 medium, Gibco, A10491-01; • FBS, Gibco, 10099141C.
• Day 1: NCI-H358 cells were passaged into a T75 cell culture flask. • Day 3: the medium was removed; the cells were rinsed once with DPBS, and digested at room temperature or at 37° C. using 2 mL of TrypLE™ Express Enzyme until the cells were detached; the resultant was added with 5 mL of fresh medium, and centrifuged at 1000 rpm for 5 min; the supernatant was discarded, and 5 mL of fresh medium was added to resuspend the cells; the cells were counted and then seeded at 40 μL/well in a 3D cell culture plate (Echo Qualified 384-Well Polypropylene Microplate 2.0, Clear, Flat Bottom). […]

Protein sequences, listed by entry. Tags and fused reporters are not part of them. Lines headed by an entry give the natural chain unless they say otherwise; changes in a name come on top.
UniProt Q07889, whole entry, stated change not applied: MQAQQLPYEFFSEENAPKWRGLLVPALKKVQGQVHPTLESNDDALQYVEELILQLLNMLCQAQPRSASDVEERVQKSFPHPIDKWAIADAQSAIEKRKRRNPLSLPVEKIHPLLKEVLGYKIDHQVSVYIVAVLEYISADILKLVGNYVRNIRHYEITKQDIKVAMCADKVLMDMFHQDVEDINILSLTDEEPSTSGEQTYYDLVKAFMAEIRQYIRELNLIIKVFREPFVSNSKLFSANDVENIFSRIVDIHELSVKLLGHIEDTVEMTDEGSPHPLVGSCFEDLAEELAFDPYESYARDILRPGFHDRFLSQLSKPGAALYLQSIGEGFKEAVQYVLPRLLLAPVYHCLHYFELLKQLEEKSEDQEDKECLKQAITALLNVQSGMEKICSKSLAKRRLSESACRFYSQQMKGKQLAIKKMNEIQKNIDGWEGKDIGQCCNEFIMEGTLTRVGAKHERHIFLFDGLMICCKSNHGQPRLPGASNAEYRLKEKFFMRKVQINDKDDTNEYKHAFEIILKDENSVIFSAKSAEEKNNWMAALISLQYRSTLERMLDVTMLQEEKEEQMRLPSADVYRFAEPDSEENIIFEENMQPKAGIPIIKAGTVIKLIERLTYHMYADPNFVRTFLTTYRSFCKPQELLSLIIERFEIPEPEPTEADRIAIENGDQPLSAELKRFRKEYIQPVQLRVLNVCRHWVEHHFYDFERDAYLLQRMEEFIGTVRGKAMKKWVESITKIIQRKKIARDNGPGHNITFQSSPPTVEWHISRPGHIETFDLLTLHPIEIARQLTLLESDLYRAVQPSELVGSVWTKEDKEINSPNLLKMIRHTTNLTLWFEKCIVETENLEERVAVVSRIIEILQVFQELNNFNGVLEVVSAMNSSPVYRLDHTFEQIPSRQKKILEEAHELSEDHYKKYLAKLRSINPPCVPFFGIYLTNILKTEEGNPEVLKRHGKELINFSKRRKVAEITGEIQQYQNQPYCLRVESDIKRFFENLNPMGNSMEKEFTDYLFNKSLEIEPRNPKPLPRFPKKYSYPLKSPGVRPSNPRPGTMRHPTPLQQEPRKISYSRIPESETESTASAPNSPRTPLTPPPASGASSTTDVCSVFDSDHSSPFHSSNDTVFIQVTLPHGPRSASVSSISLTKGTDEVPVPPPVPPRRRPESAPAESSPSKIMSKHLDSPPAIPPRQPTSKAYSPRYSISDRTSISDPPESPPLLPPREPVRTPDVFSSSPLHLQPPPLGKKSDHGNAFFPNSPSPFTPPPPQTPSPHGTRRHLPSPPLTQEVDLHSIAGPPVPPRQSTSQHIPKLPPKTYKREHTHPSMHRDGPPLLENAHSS

K-Ras^G12D and hSOS1 = K-Ras^G12D and hSOS1 (Homo sapiens, UniProt Q07889); assay: K-Ras G12D and hSOS1 binding assay (HTRF); conditions: read-out: Activity by IC50 (nM), SOS1 inhibitory activity; inhibition of binding of K-Ras G12D to hSOS1, HTRF
Experimental: 1. K-Ras^G12D and hSOS1 Binding Assay
This assay could be used to examine the potency of the compounds to inhibit the protein-protein interaction between SOS1 and KRAS G12D. The binding of anti-GSK-Europium (FRET donor)-conjugated GST-KRas^G12D to anti-6His-XL665-conjugated His-tagged hSOS1 ([…]) was detected by homogeneous time-resolved fluorescence (HTRF), and the inhibitory effects of the compounds on the binding of K-Ras^G12D to hSOS1 were determined.
• Buffer (5 mM HEPES pH 7.4, 150 mM NaCl, 10 mM EDTA, 1 mM DTT, 0.05% BAS pH 7.0, 0.0025% 1gepal, and 100 mM KF); • GST-tagged hK-RasG12D (produced in-house); • His-tagged hSOS1 (produced in-house);
• 10 nM (final concentration) GST-hK-RasG12D and 2 nM (final concentration) anti-GSK-Europium in assay buffer were mixed, and set aside at room temperature.
• 20 nM (final concentration) His-tagged hSOS1 and 10 nM (final concentration) anti-6His-XL665 in assay buffer were mixed, and set aside at room temperature.
The test compound was dissolved in DMSO at a concentration of 100 times the assay concentration. 50 nL of the solution of compound was pipetted by Hummingbird liquid handler or Echo acoustic system to a black microassay plate.
All the experimental steps were conducted at 20° C. […]
The IC50 values were calculated and analyzed using a four-parameter logistic regression model.

Compound: Cc1nc(N[C@H](C)c2cccc(C(F)(F)F)c2)c2c(n1)N1CCN=C1C(c1ccn(C)c(=O)c1)=C2
- IC50 (NCI-H358 cells): < 50 nM
- IC50 (K-Ras^G12D and hSOS1): 10 to 50 nM
